For one compound, AC50 results are on record in PubChem BioAssay AID493191 (Broad Institute, 2011).

This assay relates to MALME3 melanoma viability, CellTiter-Glo luminescence, 24 h. Kind of assay: growth inhibition of MALME3 cells – cell-based, CellTiter-Glo, cherry-picked, orthogonal assay for MITF inhibitor project, dose response (AID 493191). In general terms: In ATP-based viability assays light output follows the ATP content of the culture.

What is called AC50 is the concentration giving half of the maximal activity seen. Consider `C1CCC(C(CC2CCCCN2)C2CCCCC2)CC1` (stereo unspecified), for which the AC50 was 17.5 µM.
